Experimental data from patent publication US9675065B2 (priority 2011, dated 2017).

Tests used:
[1] = Stability with acidified silver chloride catalyst, gas formation on ceramic cylinder; conditions: 10 ml of 5 wt % stock solution + 100 microliters acidified silver chloride
[2] = Storage stability of alkaline pH acetyl chlorate, gas release on ceramic cylinder after activation; conditions: NaHCO3 added
[3] = octanol/water, parent acid; cited from earlier work

| Molecule | gas formation on the test cylinder [1] | gas release from ceramic cylinder sustained for ([2]; after 72 hours storage at pH 9.61, HCl to pH 6.0) | gas release from ceramic cylinder sustained for ([2]; after 14 days storage at pH 9.61, HCl to approximately pH 6.0) | gas release from ceramic cylinder sustained for ([2]; after 21 days storage at pH 9.61, HCl to approximately pH 6.0) | gas release from ceramic cylinder sustained for ([2]; freshly made solution, final pH 9.61, HCl to pH 5.5) | reported Log P [3] |
| --- | --- | --- | --- | --- | --- | --- |
| CC(=O)O[Cl+2]([O-])[O-] | no gas formation | greater than 10 minutes | greater than 10 minutes | greater than 10 minutes | greater than 10 minutes | – |
| furoic acid | – | – | – | – | – | about 0.6 |
